The values below come from ChEMBL document CHEMBL4024707, “Using gene expression database to uncover biology functions of 1,4-disubstituted 1,2,3-triazole analogues synthesized via a copper (I)-catalyzed reaction” (Eur J Med Chem, 2017).

Common to all, as to type: functional
For assay [1], the system named is Hep 3B2. Nature of the assay: Cytotoxicity against human Hep3B cells at 20 uM after 24 hrs by MTT assay relative to control. (Formazan colour is commonly taken as a measure of viable cells.)
The test system of assay [2] is Hep 3B2. In words: Cell cycle arrest in human Hep3B cells assessed as accumulation at sub-G1 phase at 20 uM after 48 hrs by propidium iodide staining based flow cytometry (reference value: 1.5 to 6.5%). On the technique in general: Flow cytometry measures light scatter and fluorescence of single cells or particles in a stream.
For assay [3], the system named is Hep 3B2. Nature of the assay: Cell cycle arrest in human Hep3B cells assessed as accumulation at G0/G1 phase at 2.5 uM after 48 hrs by propidium iodide staining based flow cytometry (reference value: 39.7 to 40.4%).
Assay [4] has as its system Hep 3B2. Nature of the assay: Cell cycle arrest in human Hep3B cells assessed as accumulation at G0/G1 phase at 2.5 uM after 72 hrs by propidium iodide staining based flow cytometry (reference value: 41.6 to 46.2%).
The subject of assay [5] is Hep 3B2. Nature of the assay: Cell cycle arrest in human Hep3B cells assessed as accumulation at S phase at 2.5 uM after 48 hrs by propidium iodide staining based flow cytometry (reference value: 20.8 to 24%).
Assay [6] deals with Hep 3B2. Nature of the assay: Cell cycle arrest in human Hep3B cells assessed as accumulation at G2/M phase at 2.5 uM after 72 hrs by propidium iodide staining based flow cytometry (reference value: 28.7 to 32.3%).

Each structure is given as a SMILES string.

On to `CNC(=O)c1cc(Oc2ccc(NC(=O)Nc3ccc(Cl)c(C(F)(F)F)c3)cc2)ccn1` [SORAFENIB], for which the Activity in the assay on Hep 3B2 [1] is recorded as 40.2%; with Hep 3B2 [2] it was 43.3%; in the assay on Hep 3B2 [3], 44.1%; in the assay on Hep 3B2 [4], 43.8%; in the assay on Hep 3B2 [5], 16.2%; with Hep 3B2 [6], 35.9%.
